Among the data in US20260355274A1 (Onkure, Inc., priority 2022, published 2026) are IC50 values, retold here.

By UniProt entry, the sequences of proteins in these tests, tags left out. Where a name states a change or a piece, a line headed by the entry shows the natural chain unless it says otherwise.
UniProt O15379: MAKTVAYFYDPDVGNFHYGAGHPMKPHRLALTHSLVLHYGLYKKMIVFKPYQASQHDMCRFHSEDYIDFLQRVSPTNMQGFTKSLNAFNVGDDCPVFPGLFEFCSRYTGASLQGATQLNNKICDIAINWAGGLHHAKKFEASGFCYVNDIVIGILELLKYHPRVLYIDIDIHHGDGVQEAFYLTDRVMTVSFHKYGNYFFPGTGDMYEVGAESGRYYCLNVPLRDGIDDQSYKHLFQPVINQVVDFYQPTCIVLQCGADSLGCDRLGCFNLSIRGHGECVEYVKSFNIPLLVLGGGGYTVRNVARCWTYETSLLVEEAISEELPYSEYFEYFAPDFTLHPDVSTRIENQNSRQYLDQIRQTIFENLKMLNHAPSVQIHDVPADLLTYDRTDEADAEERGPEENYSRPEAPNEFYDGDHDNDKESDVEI

The test has as its target HDAC 3 (Homo sapiens, UniProt O15379). The test can be described thus: enzymatic inhibition of HDAC 3. The test is classed as biochemical. Particulars: HDAC 3, Class I. An excerpt:
The mammalian HDACs can be divided into four classes depending on their sequence homology, sub-cellular distribution and catalytic activity. Class I, Il and IV HDACs have a Zn^2+ cofactor in the catalytic site. Class III HDACs contain sirtuins 1-7 and are NAD^+-dependent. Class I (HDACs 1, 2, 3 and 8) share the same homology as Rpd3 and are preliminarily distributed in the nucleus of normal cells. Class II HDACs can be subdivided into class IIa HDACs and class Ilb HDACs. Class IIa enzymes (HDAC 4, 5, 7 and 9) shuttle between the nucleus and cytoplasm and are located in specific tissues such as the brain, heart, and muscle. Class IIb (HDACs 6 and 10) are chiefly located in the cytoplasm.

pIC50: −log10 of the molar value.

`C/C=C1\NC(=O)[C@@H](CS)NC(=O)[C@@H](C(C)C)NC(=O)C[C@@H](/C=C/CCS)OC(=O)[C@H](C(C)C)NC1=O` [Red-FK228, reference compound] showed a pIC50 of 8.89.
